Reference: ChEMBL document CHEMBL1671784 (J Med Chem, 2011)

Chains of the proteins cited; added tags and fusions are not shown. Lines headed by an entry give the natural chain unless they say otherwise; changes in a name come on top.
UniProt P35372, whole entry: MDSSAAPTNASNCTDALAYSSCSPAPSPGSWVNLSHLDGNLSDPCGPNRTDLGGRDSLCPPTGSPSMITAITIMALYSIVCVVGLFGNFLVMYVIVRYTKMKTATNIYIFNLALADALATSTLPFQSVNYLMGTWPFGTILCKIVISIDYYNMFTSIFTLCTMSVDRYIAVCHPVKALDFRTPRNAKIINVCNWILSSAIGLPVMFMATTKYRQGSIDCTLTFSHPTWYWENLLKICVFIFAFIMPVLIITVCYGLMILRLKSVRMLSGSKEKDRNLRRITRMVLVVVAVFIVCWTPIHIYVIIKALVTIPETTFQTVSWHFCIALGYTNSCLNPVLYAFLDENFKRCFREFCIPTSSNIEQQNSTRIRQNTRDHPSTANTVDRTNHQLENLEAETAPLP
UniProt P41143, whole entry: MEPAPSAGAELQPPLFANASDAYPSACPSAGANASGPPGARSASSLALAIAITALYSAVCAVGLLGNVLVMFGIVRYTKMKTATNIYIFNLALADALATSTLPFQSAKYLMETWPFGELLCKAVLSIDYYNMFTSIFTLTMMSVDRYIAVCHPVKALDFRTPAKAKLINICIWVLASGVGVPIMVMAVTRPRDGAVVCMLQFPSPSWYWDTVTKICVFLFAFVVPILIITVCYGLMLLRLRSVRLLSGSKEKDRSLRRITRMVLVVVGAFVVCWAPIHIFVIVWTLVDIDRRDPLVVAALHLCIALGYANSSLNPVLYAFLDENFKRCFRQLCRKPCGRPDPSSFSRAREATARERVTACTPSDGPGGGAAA
UniProt P41144: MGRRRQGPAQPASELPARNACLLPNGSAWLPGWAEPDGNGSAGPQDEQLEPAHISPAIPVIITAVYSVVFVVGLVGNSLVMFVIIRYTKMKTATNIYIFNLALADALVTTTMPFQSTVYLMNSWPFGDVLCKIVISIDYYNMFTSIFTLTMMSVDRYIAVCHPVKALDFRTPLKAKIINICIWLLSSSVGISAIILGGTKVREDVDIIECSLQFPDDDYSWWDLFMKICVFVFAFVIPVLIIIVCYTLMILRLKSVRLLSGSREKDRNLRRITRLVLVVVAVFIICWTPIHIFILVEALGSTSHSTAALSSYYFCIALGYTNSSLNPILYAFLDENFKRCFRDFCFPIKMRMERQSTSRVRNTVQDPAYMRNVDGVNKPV

Legend:
[1] = molecular target: Mu-type opioid receptor (Homo sapiens, UniProt P35372); assay: biochemical
[2] = molecular target: Delta-type opioid receptor (Homo sapiens, UniProt P41143); assay: biochemical
[3] = molecular target: Kappa-type opioid receptor (Cavia porcellus, UniProt P41144); format: cell membranes, Brain, Membrane

Row | Compound | EC50 [1] [pM] | EC50 [2] [pM] | Ki [3] [pM]
1 | Cl.Cl.O=C(O)CN[C@H]1CC[C@@]2(OCCCc3ccccc3)[C@H]3Cc4ccc(O)c5c4[C@@]2(CCN3CC2CC2)[C@H]1O5 | 690 | 690 | 
2 | O=C1CC[C@@]2(OCCCc3ccccc3)[C@H]3Cc4ccc(O)c5c4[C@@]2(CCN3CC2CC2)[C@H]1O5 |  |  | 410
